# PubChem BioAssay AID1022 (Emory University Molecular Libraries Screening Center, 2008)
# Chains of the proteins cited; added tags and fusions are not shown.
# UniProt Q07820, whole entry: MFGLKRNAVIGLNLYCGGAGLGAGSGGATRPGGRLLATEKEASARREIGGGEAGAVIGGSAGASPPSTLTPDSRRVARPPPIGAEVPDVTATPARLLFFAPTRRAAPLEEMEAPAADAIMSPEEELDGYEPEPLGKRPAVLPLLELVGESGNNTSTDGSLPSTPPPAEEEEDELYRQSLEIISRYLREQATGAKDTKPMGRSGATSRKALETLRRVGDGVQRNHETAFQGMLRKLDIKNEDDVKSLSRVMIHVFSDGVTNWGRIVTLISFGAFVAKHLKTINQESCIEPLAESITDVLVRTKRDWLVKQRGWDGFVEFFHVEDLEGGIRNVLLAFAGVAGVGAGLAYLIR
# Only a part is listed here, and it is no random draw. Active and inactive are the calls of the source.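 Rule for the calls: active = compounds that cut the protein-peptide binding signal by more than 50% relative to plate controls in a single-dose test; inactive = the rest.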
# Target: Induced myeloid leukemia cell differentiation protein Mcl-1 (Homo sapiens) (UniProt Q07820)
# Experiment: Mcl-1/Noxa binding inhibitors, primary screen, biochemical, TR-FRET, 1536-well (AID 1022);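 note: His-tagged Mcl-1 with rhodamine Noxa BH3 peptide and terbium anti-His antibody; 0% = Mcl-1 plus Noxa peptide wells and 100% = peptide-only wells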
# Conditions: TR-FRET Mcl-1/Noxa peptide binding, 2 h; at 21.7 µM; stronger effect = higher value
row,Structure (SMILES),inhibition
1,CN(C(=O)Cc1ccc(Cl)c(Cl)c1)[C@@H]1CCCC[C@H]1N1CCCC1,inactive: 5.79%
